Experimental data: US5958719A, “Method for the determination of the activity of specific phosphotyrosine phosphatases and specific effectors thereof in intact cells” (Max-Planck Gesellschaft Zur Foderung der Wissenschaften E.V., priority 1995, dated 1999)

Test system: PDGF receptor-directed PTPase(s)
Conditions: relative dephosphorylation after 5 min, control without effector = 100%

| Molecule | Relative PDGF receptor-directed PTPase activity (% of control) (25 μM) | Relative PDGF receptor-directed PTPase activity (% of control) (2 mM) |
| --- | --- | --- |
| O=[As]c1ccccc1 (centres unmarked) | 38 % of control | – |
| Na orthovanadate | – | 34 % of control |

Read-outs that look alike come from different tables or passages of the source.
